# Ab-14 light chain CDR variants: yeast mating affinities

From the AlphaSeq antibody data of Li et al. 2023 (doi:10.1038/s41467-023-39022-2), copy in the FLAb collection.

Binding partner: SARS-CoV-2 spike HR2 peptide, sequence PDVDLGDISGINAS.

The variants keep the heavy chain, the linker and the frameworks of Ab-14 (scFv order VH, a 15-residue (Gly4Ser)3 linker, VL).
VH: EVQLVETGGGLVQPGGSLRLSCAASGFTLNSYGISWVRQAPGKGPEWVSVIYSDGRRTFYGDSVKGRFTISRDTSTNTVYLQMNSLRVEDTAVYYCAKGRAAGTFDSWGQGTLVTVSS
VL: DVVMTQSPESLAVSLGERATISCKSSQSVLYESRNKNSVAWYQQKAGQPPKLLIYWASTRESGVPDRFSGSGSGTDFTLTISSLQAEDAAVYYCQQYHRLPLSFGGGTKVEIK

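The starting antibody came from a phage panning campaign against this peptide. Designed CDR sequences, proposed from the first random library and measured here. Their group label is 14L_En_HC (En: ensemble of fine-tuned language models; HC: hill climbing; a sequence that several methods proposed may carry one label only). The assay is AlphaSeq: two haploid yeast populations carry antibody and antigen on their surface. The frequency of each diploid, read from paired DNA barcodes, reflects how well the two displayed proteins bind. Each replicate has its own calibration line, from reference interactions of the BCL2 family. Mating was done six times.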

The parent's light chain CDRs are KSSQSVLYESRNKNSVA, WASTRES, QQYHRLPLS; each variant's own CDRs replace them letter for letter. Numbers give log10(Kd / nM), so 0 is 1 nM and 3 is 1 µM. Smaller is tighter. An entry "nd" has no value in the source: the pair was not observed among the diploids in that replicate. This suggests poor binding but is not conclusive. The range of this assay differs from that of the first round, and the authors advise against merging the two.

| CDR-L1 | CDR-L2 | CDR-L3 | log10 Kd, replicates | control signals |
|---|---|---|---|---|
| TISQAAQQESHNKNSVA | DLNVRGS | QQYDRLPLS | nd nd nd nd 2.72 nd | 0/18 |
| HITMMVGTKGYNKNSVA | NAETRED | QQYHRLPLS | 0.99 0.78 1.04 1.17 1.01 1.08 | 0/18 |
| KIGQMVTGETRNKNSIA | QMTTREG | QQYHRLPLS | 0.77 0.65 0.69 0.43 0.17 0.51 | 1/18 (2.99) |
| ALGDVTRMESNKKNSIA | DMSTREE | QQYHRLPLS | 0.87 0.64 0.17 0.98 1.28 0.58 | 1/18 (3.11) |
| TLTQVQGMESHNNDSVA | DLSTRGS | QQYHRLPLS | 2.33 1.40 1.43 1.37 1.79 1.43 | 0/18 |
| SFSQSVLYESVHKNNVA | QTSTRED | QQYDHLPLS | 0.12 0.61 -0.03 0.76 -0.01 0.73 | 1/18 (1.99) |
| TLGTVTLMESRNKNNVA | QMSTREK | QQYDRLPLS | 0.59 0.34 0.29 0.02 0.37 0.41 | 2/18 (3.88) |
| HMSQVTMYGYWNYNSVA | QTSTREE | QQYDRLPLS | 1.71 1.46 1.09 1.19 1.40 1.74 | 1/18 (3.67) |
| HISESMYFQSRNKNNIA | EMSTRER | QHYHRLPLS | 0.59 -0.04 0.18 -0.15 0.29 0.15 | 0/18 |
| IISQVDAYEMRNKNSIA | DQSTRGS | QQYDRLPLS | 0.69 0.63 0.59 0.38 0.44 0.92 | 1/18 (2.66) |
| KFGSGVHVESIMKNSIA | QTSTREE | QQYDRLPLS | 0.76 0.66 0.33 0.50 0.52 0.44 | 2/18 (2.13) |
| KLSMMYRYETEEKNSIA | ELVTRMS | QQYHRLPLS | 1.24 1.14 nd nd 1.67 nd | 1/18 (1.38) |
| KLLQEVTGHSRNRNSVA | HNSTREE | QQYDRLPLI | 2.66 2.99 2.81 nd 1.95 3.56 | 4/18 (3.17) |
| IFSQGVMVGWLTRNSVA | NSSTRES | QQYHRLPLS | 1.28 1.65 1.11 2.07 1.44 1.86 | 3/18 (2.15) |
| IISQVDDYLSRQTNSIA | DQSTRGS | QQYDRLPLS | 0.82 1.18 1.10 1.35 1.50 1.76 | 1/18 (1.73) |
| TISQMFLGESRNRNSVA | QASTREN | QSYDRLPLS | 1.23 0.99 0.97 1.11 1.19 1.17 | 4/18 (2.93) |
| KQSQSVLYESRNKNSVA | DASTRES | QQYHRLPLS | -0.24 -0.15 -0.37 -0.44 -0.26 -0.06 | 1/18 (2.38) |
| MIASGLRGVGRNKNSVA | NAQTRES | QHYHRLPLS | 0.95 1.44 1.27 1.08 0.89 1.22 | 1/18 (2.41) |
| NISESMYFQSRMKNNIA | EVSTRER | QHYHRLPLS | 1.34 1.42 0.99 1.41 1.27 1.19 | 2/18 (3.25) |
| KIQGYLNKESKNKNSVA | EMVNRES | QQYDRLPLS | 0.64 0.38 0.41 0.51 0.17 0.16 | 0/18 |
| KLIQSVAMSSRTKDSIA | DNSTRES | QQYHRLPLS | 2.59 nd 2.83 2.09 nd 2.67 | 0/18 |
| HVSEMIFAQMKQRNSVA | ENNTREA | QQYDRLPLS | nd 2.56 1.45 2.35 2.10 2.55 | 1/18 (2.62) |
| KLGGVTEYEMRNKNSVA | QMTTREK | QQYHRLPLS | 0.20 -0.06 -0.26 -0.44 -0.18 0.05 | 0/18 |
| HLGGMMTWESRAKNSVA | QSNTRAE | QQYHRLPLS | 0.40 0.17 0.28 0.38 -0.01 0.21 | 3/18 (3.04) |
| KISQMVMYESTWWNAIA | QTSTREE | QQYHRLPLS | 1.19 0.76 0.62 0.51 0.69 0.59 | 0/18 |
| KLIQSVAMSSRQKDSIA | DNSTREY | QQYHRLPLS | 1.78 2.02 3.41 1.82 1.78 1.78 | 2/18 (2.87) |
| VLSQSMDMTSRNVNSVA | DLTTRGN | QQYHRLPLS | 0.72 0.25 0.11 0.60 0.45 0.62 | 0/18 |
| KISTLTLYESVNKNSVA | EMSTRPS | QSYHRLPLS | 0.59 0.46 0.44 1.35 1.71 0.98 | 0/18 |
| KITQMVTGQSHNKNSIA | QMTTREG | QQYHRLPLS | nd 0.85 2.14 1.42 1.48 1.45 | 0/18 |
| KLSQVTHSEIRNKNSIA | EMVTREV | QQYDRLPLS | 1.40 1.84 1.46 1.62 1.11 1.84 | 1/18 (2.87) |
| KLRQVTGYESYLKNSVA | QTSTRAE | QDYNRLPLS | 0.27 0.27 0.32 0.12 0.46 0.31 | 2/18 (3.06) |
| KLPASTMQESVSKNSVA | ELSTRGS | QQYHRLPLS | 0.51 0.59 0.45 0.70 0.54 0.66 | 1/18 (4.38) |
| MLSDLVKFGSRNTNSVA | DNSTRGS | QQYDRLPLS | nd nd 0.90 1.21 3.26 2.44 | 0/18 |
| IISGSMLVESKHKNSVA | NAETREY | QHYDRLPLS | 1.33 1.59 1.47 1.31 1.73 1.95 | 2/18 (2.41) |
| KLSQSTLFFGHAINSVA | EMETREN | QQYDRLPLS | 0.68 0.65 0.39 0.77 0.58 0.82 | 0/18 |
| HISQMVMYGSCNKNNVA | QVSTREE | QQYHHLPLS | 0.60 0.55 0.71 0.59 0.60 0.85 | 2/18 (3.09) |
| MFSQTVMYESTMRNNVA | QTSTREQ | QQYDRLPLS | 0.60 -0.03 0.70 0.09 0.80 0.20 | 1/18 (1.19) |
| MISQSFYIGMKAKNSVA | QTNTREE | QQYDRLPLI | 0.28 0.56 0.58 0.58 0.81 0.84 | 0/18 |
| KILGEIENQSYNRNSVA | HSTTRED | QSYHRLPLS | 1.24 0.96 0.89 0.85 0.71 0.98 | 1/18 (3.17) |

Excerpt, the first 2 entries:

| CDR-L1 | CDR-L2 | CDR-L3 | log10 Kd, replicates | control signals |
|---|---|---|---|---|
| TISQAAQQESHNKNSVA | DLNVRGS | QQYDRLPLS | nd nd nd nd 2.72 nd | 0/18 |
| HITMMVGTKGYNKNSVA | NAETRED | QQYHRLPLS | 0.99 0.78 1.04 1.17 1.01 1.08 | 0/18 |

Nonspecific signal, from three strains lacking the peptide, appeared in 4% of pairings of all light chain designs, centred on 2.64 (5% of these signals below 1.59); values are not corrected for it. For each scFv, signals with the empty controls are counted beside the result, with their mean in brackets. The authors averaged sequences with at least three values out of six and counted those with two or fewer as poor binders. The parent sequence was in this pool as ten entries: three were never detected, three once, and four in most replicates, with averages from 0.34 to 2.37.